The results in this text go back to ChEMBL document CHEMBL1129037 (J Med Chem, 1996).

By UniProt entry, the sequences of proteins in these tests, tags left out.
UniProt P23977, whole entry: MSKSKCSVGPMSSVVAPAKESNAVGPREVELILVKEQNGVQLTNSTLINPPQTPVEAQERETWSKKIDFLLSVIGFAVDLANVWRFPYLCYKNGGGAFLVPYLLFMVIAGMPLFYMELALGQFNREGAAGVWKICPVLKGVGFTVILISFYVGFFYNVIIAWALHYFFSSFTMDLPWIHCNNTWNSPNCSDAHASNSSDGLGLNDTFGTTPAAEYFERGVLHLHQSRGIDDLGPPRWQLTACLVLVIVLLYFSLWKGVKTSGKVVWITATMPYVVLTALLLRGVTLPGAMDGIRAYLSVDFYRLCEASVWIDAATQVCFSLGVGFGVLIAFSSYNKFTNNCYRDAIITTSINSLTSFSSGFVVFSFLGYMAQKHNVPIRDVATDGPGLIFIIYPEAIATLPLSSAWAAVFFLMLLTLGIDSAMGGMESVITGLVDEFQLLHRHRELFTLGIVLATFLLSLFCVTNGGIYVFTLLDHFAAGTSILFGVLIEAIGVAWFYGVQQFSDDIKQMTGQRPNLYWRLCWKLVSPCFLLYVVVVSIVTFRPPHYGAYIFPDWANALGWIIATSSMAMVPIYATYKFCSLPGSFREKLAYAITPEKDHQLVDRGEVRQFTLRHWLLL

Structures are written as SMILES.

For assay [1], the target named is T1, Sodium-dependent dopamine transporter (Rattus norvegicus, UniProt P23977). The experiment in a line: Inhibition of [3H]WIN-35428 binding to dopamine transporter using rat striatal tissue. The class given is tissue-based, Striatum.
Assay [2] has as its target T1, Sodium-dependent dopamine transporter. In words: Inhibitory activity against [3H]dopamine uptake in rat striatal tissue. The class given is functional, tissue-based, Striatum.

Turning to `COC(=O)C(c1ccc(C(C)(C)C)cc1)C1CCCCN1` (single isomer, unassigned), the IC50 in assay [1] was 41.3 µM; in assay [2], 52.5 µM.

With `COC(=O)[C@@H](c1ccc(C(C)(C)C)cc1)[C@@H]1CCCCN1`, the IC50 in assay [1] was 13.5 µM; in assay [2], 9.35 µM.

One may read the IC50 as the concentration that inhibits the measured activity by half. High values mean lower potency, low ones higher potency.
